Bioassay records deposited in PubChem by National Center for Advancing Translational Sciences (NCATS).
Sampled rows, rich in hits. Any-hit rate of the full collection: about 13%.
ALDH1A1 inh: ALDH1A1 (human) enzyme inhibition; Purified ALDH1A1, NADH fluorescence, propionaldehyde substrate; hit rate 7.3% among 220,000; AID 1030; Potency, µM (series often up to 75.3 µM), inactives show top-dose activity, negative = inhibition, actives largely listed as inhibitors; active = well fitted inhibition curve with a large enough effect, not every such curve was filed as active; inconclusive = small, poorly fitted or top-dose-only effect, or another doubt; inactive = no such curve, though single readings can be large or run the other way;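 note: potency is the fitted concentration of half-maximal effect; plate controls were no enzyme wells and a reference inhibitor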
JMJD2E inh: blocks human JMJD2E demethylase activity. B2RXH2. JMJD2E catalytic domain, FDH-coupled NADH fluorescence (FDH is formaldehyde dehydrogenase). Potency, µM (top dose mostly 57.1 µM), without a hit: at the highest dose activity change, negative = inhibition, actives largely listed as inhibitors. hit rate 1.6% among 230,000. AID 2147; active = well fitted inhibition curve with a large enough effect, not every such curve was filed as active; inconclusive = small, poorly fitted or top-dose-only effect, or another doubt; inactive = no such curve, though single readings can be large or run the other way;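 note: potency is the fitted concentration of half-maximal effect; 0% = wells with enzyme and -100% = buffer wells without enzyme; nearly all actives have a fitted effect of over 50% in size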
LMNA splice mod: LMNA splicing modulation | HeLa LMNA splicing GFP/RFP minigene ratio, 48 h | Potency, µM (top dose mostly 46.1 µM), inactives show top-dose ratio change, negative = inhibition, most hits filed as inhibitors | hit rate 0.01% among 200,000 | AID 1487; active = well fitted inhibition curve with a large enough effect in the signal ratio, with a control signal flat, not every such curve was filed as active; inconclusive = small, poorly fitted or top-dose-only effect, or effect the other way, or a change in a side signal; the % refers to the signal ratio; note: potency is the fitted concentration of half-maximal effect; % is set by controls: 0 for no effect and ±100 for the full control effect
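Read-out is the ratio of GFP to DsRed2 object intensity, acquired by 488 nm laser-scanning cytometry on HeLa lamin A-EGFP minigene reporter cells. Compound incubation 48 hrs at 37 °C in Opti-MEM with 2% FBS; DMSO 0.5% final.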
Sfp inh: qHTS Assay for Inhibitors of Bacillus subtilis Sfp phosphopantetheinyl transferase (PPTase); 4'-phosphopantetheinyl transferase ffp (Bacillus subtilis), Q9F4F7; Biochemical Sfp PPTase activity, qHTS; Potency, µM, for inactives: max response, negative = inhibition, most hits filed as inhibitors; hit rate 3.5% among 310,000; AID 1490, 2009; active = well fitted inhibition curve with a large enough effect; inconclusive = small, poorly fitted or top-dose-only effect, or another doubt; inactive = no such curve, though single readings can be large or run the other way;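 also: the enzyme is Sfp with the accession as filed and its product quenches rhodamine fluorescence; potency is read from the fitted curve at half-maximal effect; 0% = enzyme reaction without inhibitor and -100% = no enzyme wells; top concentration of the series not given in the record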
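Buffer: 50 mM Hepes-Na pH 7.6, 10 mM MgCl2, 0.01% Nonidet P-40, 0.01% BSA. Enzyme 15 nM, pre-exposed to compound 15 min; substrates then added and fluorescence change tracked over 30 min.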
G9a block: inhibitors of human histone lysine methyltransferase G9a. AID 504332. G9a H3K9 monomethylation, AlphaScreen, 2 h. hit rate 8.8% among 350,000. Potency, µM (titrated, usually from 102 µM), without a hit: top-dose activity, negative = inhibition, usual class: inhibitors. Q96KQ7; note: potency is the fitted concentration of half-maximal effect; % is set by controls: 0 for no effect and ±100 for the full control effect; nearly all actives have a fitted effect of over 75% in size
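AlphaScreen detection with an anti-monomethyl H3K9 antibody quantified product after a 2 h room-temperature reaction containing 500 nM biotinylated H3K9 peptide, 20 µM SAM and 20 nM enzyme, which had been preincubated 15 min with compound.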
miR-21 FLuc: miR-21 reporter, rising signal. HeLa miR-21 FLuc reporter, luciferase, 48 h. Potency, µM (titrated, usually from 38.3 µM), without a hit: at the top dose reporter change, positive = more light. 340,000 tested, under 10 active. AID 2288; active = well fitted rising curve with a large enough effect; inconclusive = small, poorly fitted or top-dose-only effect; inactive = no such curve, though single readings can be large or run the other way;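 also: % of control where 0% means no effect; miR-21 action dims this reporter so a rising signal means less miR-21 action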
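HeLa cells stably expressing CMV-driven firefly luciferase with a downstream miR-21 binding sequence, endogenously expressing miR-21, were treated with titrations (up to about 40uM final) for 48 hours at 37 degree Celsius. Luciferase luminescence was read after lysis.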
Starred values were filed as active, the others as inactive; u = inconclusive; x = no result given; [ ] = remark or other dose. Unless noted, calls come from the whole dose curve; as a rule, active = well fitted curve in the direction sought with a large enough effect; inconclusive = small, poorly fitted or top-dose-only effect, or another doubt; inactive = no such curve, though single readings can be large; an effect the other way counts as inactive or inconclusive.

SMILES	ALDH1A1 inh	JMJD2E inh	LMNA splice mod	Sfp inh	G9a block	miR-21 FLuc
COc1ccc(C(=O)N2CCN(Cc3ccccc3[N+](=O)[O-])CC2)cc1	x	x	x	-26%	16µM*	0%
COc1cccc(CNC(=O)CSc2ncc3c(n2)-c2cc(Cl)ccc2N(C)S3(=O)=O)c1	x	x	x	x	-2%[59 µM]	-2%
Cc1ccc(S(=O)(=O)N/N=C/c2ccc(OS(=O)(=O)c3ccc(C)c([N+](=O)[O-])c3)cc2)cc1	5µM*	2%	u	26%	u	2%
Cc1ccc(S(=O)(=O)N/N=C\c2cc3c(cc2Br)OCO3)cc1	-9%	3%	-9%	9%	-13%[59 µM]	10%
Cc1ccc(S(=O)(=O)N/N=C/c2ccc(OC3CSC3)cc2)cc1	-3%	-5%	12%	2%	-16%	17%
O=[N+]([O-])c1cc2c(cc1/C=N/NS(=O)(=O)c1ccc(Br)cc1)OCO2	3.2µM*	77%	u	-28%	11µM*	-5%
Cc1ccc(S(=O)(=O)N/N=C\c2ccc(Cl)c([N+](=O)[O-])c2)cc1	0.5µM*	-11%	u	20%	7.9µM*	1%
Cc1ccc(S(=O)(=O)N/N=C/c2ccccc2F)cc1[N+](=O)[O-]	x	x	x	13%	11µM*	-6%
O=C(c1ccc([N+](=O)[O-])cc1)N1CCSC1c1cccc(Cl)c1 (stereo not given)	1%	-7%	x	6%	79µM*	1%
Brc1ccc2nc(-c3c[nH]c4ccccc34)cn2c1	2%	u	u	-10%	50µM*	-53%
C=CCn1c2ccccc2c2nnc(SCN3C(=O)c4ccccc4C3=O)nc21	28µM*	-13%	15%	3%	11%[12.7 µM]	-1%
C=CCn1c2ccccc2c2nnc(SCCN3CCCCC3)nc21	x	x	x	-6%	x	1%
O=C1c2ccccc2C(=O)N1CSc1nnc2c3ccccc3n(CCc3ccccc3)c2n1	18µM*	7%	0%	4%	26%[12.7 µM]	-3%
CCN(CC)CCSc1nnc2c3ccccc3n(CCc3ccccc3)c2n1	x	x	x	-2%	-23%	20%
CCOC(=O)c1sc(NC(=O)c2nc3nc(C)cc(C(F)F)n3n2)c(C(=O)OC(C)C)c1C	x	x	x	x	-28%[59 µM]	-7%
COc1ccc(-c2csc(-c3[nH]cnc3N)n2)cc1	7.1µM*	9%	u	8%	u	-11%
COc1ccc(-c2csc(-c3ccc(C(=O)O)cc3)n2)cc1	u	u	x	3%	16%	-44%
O=c1[nH]c2cc([N+](=O)[O-])c(NCCO)c([N+](=O)[O-])c2[nH]1	0%	3%	7%[46 µM]	10%	u	-29%
CC(=O)Nc1c([N+](=O)[O-])cc2[nH]c(=O)[nH]c2c1[N+](=O)[O-]	2%	25µM*	x	20µM*	32µM*	0%
CC1=C(C(N)=O)C(c2ccc(C(C)C)cc2)n2nc(SCc3ccccc3F)nc2N1 (stereo not given)	x	x	x	x	2%[59 µM]	1%
O=C(N/N=C1\CC2CC=CC12)c1ccccc1Cl (stereo not given)	-6%	34%	-10%[46 µM]	11%	-9%	-12%
FC(F)(F)c1ccccc1NC(=S)N/N=C1\CC2CC=CC12 (stereo not given)	7.9µM*	10%	x	-29%	18µM*	10%
COCCN(C(=O)c1csnn1)C(C(=O)NC1CCCCC1)c1ccccc1F (stereo not given)	x	x	x	10%	34%	-1%
CC(=O)OC1CCC2(C)C(=CCC3C2CCC2(C)C3C[C@@H]3O[C@]32C(C)=O)C1 (stereo not given in full)	0%	1%	x	0%	x	x
CC(=O)c1ccc(N2CCN(c3ccc(S(=O)(=O)NCCN(C)C)cc3[N+](=O)[O-])CC2)cc1	x	2%	x	7%	x	14%
CN(C)CCCNS(=O)(=O)c1ccc(N2CCN(Cc3ccc4c(c3)OCO4)CC2)c([N+](=O)[O-])c1	x	x	x	71µM*	10µM*	19%
O=Cc1cc([N+](=O)[O-])ccc1N1CCN(Cc2ccc3c(c2)OCO3)CC1	x	x	x	9%	45µM*	0%
CN(C)CCCNS(=O)(=O)c1ccc(-n2nnc3ccccc32)c([N+](=O)[O-])c1	x	x	x	4%	u	0%
CC(=O)c1ccc(N2CCN(c3ccc(S(=O)(=O)NCCCN(C)C)cc3[N+](=O)[O-])CC2)cc1	19µM*	-4%	u	-13%	u	15%
CN(C)CCNS(=O)(=O)c1ccc(N2CCc3ccccc32)c([N+](=O)[O-])c1	x	x	x	-11%	50µM*	22%

Among those listed so far, 4 have an aryl methoxy group.
SMILES	ALDH1A1 inh	JMJD2E inh	LMNA splice mod	Sfp inh	G9a block	miR-21 FLuc
COc1ccc(C(=O)N2CCN(Cc3ccccc3[N+](=O)[O-])CC2)cc1	x	x	x	-26%	16µM*	0%
COc1cccc(CNC(=O)CSc2ncc3c(n2)-c2cc(Cl)ccc2N(C)S3(=O)=O)c1	x	x	x	x	-2%[59 µM]	-2%
COc1ccc(-c2csc(-c3[nH]cnc3N)n2)cc1	7.1µM*	9%	u	8%	u	-11%
COc1ccc(-c2csc(-c3ccc(C(=O)O)cc3)n2)cc1	u	u	x	3%	16%	-44%

Later entries.
Letter code: A = ALDH1A1 inh; B = JMJD2E inh; C = LMNA splice mod; D = Sfp inh; E = G9a block; F = miR-21 FLuc
O=C(CN(C(=O)CCC(=O)Nc1nccs1)c1ccccc1F)NCc1ccccc1
  A: x | B: x | C: x | D: 17% | E: -10% | F: 5%
COc1ccc(-n2c(Cn3nc(C(F)(F)F)cc3C)n[nH]c2=S)cc1
  A: 10% | B: 0% | C: -1% | D: 0% | E: 7.9µM* | F: -4%
Cc1ccc(-n2c(Cn3nc(C(F)(F)F)cc3C)n[nH]c2=S)cc1
  A: u | B: -10% | C: -1% | D: u | E: u | F: -12%
COc1cccc(-n2c(Cn3nc(C(F)F)cc3C(F)F)n[nH]c2=S)c1
  A: 2% | B: -2% | C: 6% | D: -16% | E: 8.9µM* | F: -5%
COc1cccc(-n2c(Cn3nc(C(F)(F)F)cc3C)n[nH]c2=S)c1
  A: 4% | B: u | C: -2% | D: -4% | E: 8.9µM* | F: 1%
COc1ccc(-n2c(COc3ccccc3)n[nH]c2=S)cc1
  A: x | B: x | C: x | D: 2% | E: 14%[0.501 µM] | F: -5%
Cn1c(C(=O)NCCc2c[nH]c3ccccc23)cc2sccc21
  A: -12% | B: -3% | C: -14% | D: 12% | E: 40µM* | F: -57%
COc1cccc(C(=O)Nc2cccc(C(=O)OCc3cc(=O)n4nc(C5CC5)sc4n3)c2)c1
  A: x | B: x | C: u | D: x | E: -1%[59 µM] | F: -8%
Cc1cc([N+](=O)[O-])cnc1N1CCOCC1
  A: -3% | B: 7% | C: 1% | D: 25% | E: 5% | F: -8%
O=[N+]([O-])c1cnc(N2CCCCC2)c([N+](=O)[O-])c1
  A: 18µM* | B: -7% | C: -8% | D: 7% | E: 10µM* | F: 2%

(more compounds)
Letter code: A = ALDH1A1 inh; B = JMJD2E inh; C = LMNA splice mod; D = Sfp inh; E = G9a block; F = miR-21 FLuc
CCN1C(=O)[C@H]2[C@@H](c3ccc(-c4ccc(F)cc4)cc3)N3CCCC[C@@]3(C(=O)OC)[C@H]2C1=O
  A: x | B: x | C: x | D: x | E: -22%[2.33 µM] | F: x
COc1ccccc1N1CCN(C(=O)c2c(C)oc3ncn(CC(C)C)c(=O)c23)CC1
  A: x | B: x | C: u | D: x | E: 0%[59 µM] | F: -1%
CCCOc1ccc(C(C)(O)CN2CCOCC2)cc1 (stereo not given)
  A: 3% | B: 8% | C: -1% | D: 17% | E: -35%[12.7 µM] | F: 1%
COc1ccc(C(O)(CCN2CCOCC2)c2ccccc2)cc1 (stereo not given)
  A: x | B: x | C: x | D: 6% | E: -49%[2.33 µM] | F: -4%
CCCCOc1ccc(C(O)(CC)CCN2CCOCC2)cc1 (stereo not given)
  A: 7.9µM* | B: 5% | C: -12% | D: 6% | E: u | F: -13%
